According to patent US10562939B2, “Method for significantly increasing lentiviral production” (priority 2016, dated 2020):

Biological target: T1, interaction between HO-2 and HIV-1 MA (Homo sapiens, UniProt P30519)
T1 sequence (P30519 1-316): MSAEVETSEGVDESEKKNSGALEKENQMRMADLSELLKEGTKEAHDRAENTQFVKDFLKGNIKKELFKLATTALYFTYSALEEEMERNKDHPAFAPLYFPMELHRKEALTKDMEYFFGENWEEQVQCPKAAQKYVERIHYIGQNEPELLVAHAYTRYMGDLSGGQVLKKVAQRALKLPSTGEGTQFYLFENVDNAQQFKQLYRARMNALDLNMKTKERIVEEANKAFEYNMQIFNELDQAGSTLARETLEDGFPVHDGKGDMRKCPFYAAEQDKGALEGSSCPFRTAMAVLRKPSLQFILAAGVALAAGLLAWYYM
Test: Co-immunoprecipitation of HO-2 with flag-tagged HIV-1 MA (Western blot)
Conditions: for interaction between HO-2 and HIV-1 MA: added to cell lysates, Myc-HO-2, FIGS. 1D, 8C

In the case of `CCCCCCCCCCCCCC(=O)O[C@@H]1[C@@H](C)[C@@]2(O)[C@@H](C=C(CO)C[C@]3(O)C(=O)C(C)=C[C@@H]23)[C@@H]2C(C)(C)[C@]12OC(C)=O` [PMA, Phorbol 12-myristate 13-acetate], the “interaction between HO-2 and HIV-1 MA” value is reported as “decrease the interaction between HO-2 and HIV-1 MA in a dose-dependent manner”.

For `C=CC1=C(C)C2=Cc3c(C=C)c(C)c4[n]3[Sn]([Cl])([Cl])[n]3c(c(C)c(CCC(=O)O)c3=CC3=NC(=C4)C(C)=C3CCC(=O)O)=CC1=N2` [SnPPIX, tin protoporphyrin IX dichloride], the “interaction between HIV-1 MA and HO-2” value (endogenous HO-2, increasing concentrations of SnPPIX, FIG. 4B) was “strongly inhibited the interaction between HIV-1 MA and HO-2 in a dose-dependent manner”.

For `CCCCCCCCCCCCCC(=O)O` [myristic acid], the “interaction between HO-2 and HIV-1 MA” value was “decrease the interaction between HO-2 and HIV-1 MA in a dose-dependent manner”.
